Ab-14 light chain CDR variants: yeast mating affinities

Values reported by Engelhart et al. 2022, doi:10.1038/s41597-022-01779-4 (FLAb copy).

All variants were tested on one target, the spike HR2 peptide PDVDLGDISGINAS (SARS-CoV-2).

Parent: Ab-14, a human scFv built as VH, the linker GGGGSGGGGSGGGGS, VL. Only the CDRs of the light chain vary.
VH: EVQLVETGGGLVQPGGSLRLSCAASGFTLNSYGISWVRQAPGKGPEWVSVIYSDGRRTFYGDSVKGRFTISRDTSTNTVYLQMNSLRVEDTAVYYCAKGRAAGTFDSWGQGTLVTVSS
VL: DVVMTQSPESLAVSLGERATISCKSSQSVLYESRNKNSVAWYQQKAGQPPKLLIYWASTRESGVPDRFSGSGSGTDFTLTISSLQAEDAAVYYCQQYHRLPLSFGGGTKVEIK

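The starting antibody came from a phage panning campaign against this peptide. AAYL50 was designed without a model: most single CDR substitutions and a random sample of double and triple ones. The assay is AlphaSeq: two haploid yeast populations carry antibody and antigen on their surface. The frequency of each diploid, read from paired DNA barcodes, reflects how well the two displayed proteins bind. The ratio of observed to expected reads was calibrated, replicate by replicate, on BCL2-family standards whose Kd was known from biolayer interferometry. Mating was done three times.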

The parent's light chain CDRs are KSSQSVLYESRNKNSVA, WASTRES, QQYHRLPLS; each variant's own CDRs replace them letter for letter.
This list gathers variants with a substitution at Q27 (VL, numbered from residue 1).
Values are apparent Kd, the geometric mean of the replicates that gave a signal; lower means stronger binding.
"nd" means that the variant was in the library but no mating with the target was seen in any replicate; the authors take this as a sign of poor binding, and no number exists.
Empty control strains, which show no peptide, gave a signal in 18% of pairings with library AAYL50; the median was 15 µM and 95% of these signals were weaker than 970 nM. No background was subtracted.

The variant KSSKSYLYESRNKNSVA / WASTRES / RQYHRLPLS gave nd (0 of 3 replicates). For KSSSSVLYEVRNKNSVA / WASTRES / QQYKRLPLS, the assay gave 920 nM (3 of 3 replicates). The variant KSSKSKLYESRNKNSVA / WASTRES / QQGHRLPLS showed 580 nM (2 of 3 replicates). With KSSNSVPYESRNKNSVA / WNSTRES / QQYHRLPLS the result was nd (0 of 3 replicates). With KSSPSVLYKSRNKNSVA / WASKRES / QQYHRLPLS the result was 420 nM (3 of 3 replicates). The variant KSSYSVLYESRNVNSVA / WAQTRES / QQYHRLPLS showed 27 nM (3 of 3 replicates). With KSVKSVLYESRNKNSVA / WASTRES / QQYHRLPLF the result was 280 nM (1 of 3 replicates). The variant KSSASVLYEARNKNSVA / WASTRES / QQYHRLPRS showed 6.2 nM (3 of 3 replicates).

For KSSYSVLYESRNKNGVA / WGSTRES / QQYHRLPLS, the assay gave 190 nM (3 of 3 replicates). For KSSGSVLYESRGKCSVA / WASTRES / QQYHRLPLS, the assay gave 42 nM (3 of 3 replicates). The variant KKSLSVLYESRNKNSVK / WASTRES / QQYHRLPLS showed nd (0 of 3 replicates). For KSSSSVLYESRNKNSVA / WASTRES / KQYKRLPLS, the assay gave nd (0 of 3 replicates). The variant KSSYSDLYESRNKNSVA / WASTRES / QQVHRLPLS showed 7.2 µM (1 of 3 replicates). With KSSCSVLYESRNKLSVA / WASTRES / QQYHRLPLS the result was 580 nM (2 of 3 replicates). The variant KSSFSVLYESREKNSVA / WASTRES / QQYHRLPLS showed nd (0 of 3 replicates). The variant KMSCSVLYESRNKNSVA / WASTRES / QQYFRLPLS gave 150 nM (3 of 3 replicates).

The variant KSSAAVLYESRNKNSVA / WASTRES / QQTHRLPLS showed 2.5 µM (1 of 3 replicates). The variant KSSSSVLYESRDKNSVA / WASTRES / QQTHRLPLS showed 79 nM (3 of 3 replicates). With KSSESVLYESRNKNSVA / WASTRES / QQYHRLPLS the result was 8.9 nM (3 of 3 replicates). With KSSMSVLYESRRPNSVA / WASTRES / QQYHRLPLS the result was 53 nM (3 of 3 replicates). The variant KSSRSVLYESRNKNSVA / RASTRES / QQYHRLALS showed nd (0 of 3 replicates). The variant KSSASVLYESRNKNSVA / WPSTRES / FQYHRLPLS gave 60 µM (1 of 3 replicates). With KSSLSVLYESRNKNSSA / WAKTRES / QQYHRLPLS the result was nd (0 of 3 replicates). The variant KSSGSVLYESRNGNSVA / WASTRES / QQYHRLPTS gave 83 nM (3 of 3 replicates).

For KSSMSVLYESRNKNIVA / WASTRES / QQYHLLPLS, the assay gave nd (0 of 3 replicates). For KSSYSPLYESRNKNSVA / WASTRES / QQYHRLPFS, the assay gave 5.1 nM (3 of 3 replicates). The variant KSSYSVLYESRNKNSVA / WAWMRES / QQYHRLPLS gave 140 nM (3 of 3 replicates). The variant KSSASVLWESRNKNSVA / WASTRES / QQYHCLPLS showed nd (0 of 3 replicates). The variant KSSLSVLYESRNKNSVA / WACTRES / QQVHRLPLS gave 98 µM (1 of 3 replicates). The variant KSSRSVKYESRNKNSVA / WASTQES / QQYHRLPLS gave nd (0 of 3 replicates). With KSSKSGLYESRNKNSVA / WASTREI / QQYHRLPLS the result was 13 nM (3 of 3 replicates). For KSSPSVLYETRNKNSVA / WASTRES / QQYHRLPLS, the assay gave 910 µM (1 of 3 replicates).

The variant KSSYSVLYASRNKNSVA / WAITRES / QQYHRLPLS showed 920 nM (2 of 3 replicates). The variant KSSWSVLYESRNQNSVA / WASTRES / QQYHRLPLS gave 5.4 nM (3 of 3 replicates). The variant KSSHSVLYESRNKNSVA / WASTRES / QQYHRLPLS gave 8.9 nM (3 of 3 replicates). The variant KSSSSVLSESRNKNSVA / WASTRES / QQYHRLPLS showed 11 µM (2 of 3 replicates). The variant KSSPSVLYESRMKNSVA / WASTPES / QQYHRLPLS gave 69 µM (1 of 3 replicates). For KSSLSVLYESRNKNCVA / WASTRES / QQGHRLPLS, the assay gave nd (0 of 3 replicates). With KSSTSVLYESRNKNSMK / WASTRES / QQYHRLPLS the result was 1.3 mM (2 of 3 replicates). For KSSFSVLYESRNFNSVA / WASTRES / QQYHRLPLI, the assay gave 150 nM (3 of 3 replicates).

The variant KSSNSVLYFSRNKNSVA / WASTQES / QQYHRLPLS gave 5.2 µM (3 of 3 replicates). With NSSISVLYESRNKNSVA / WASTRES / QQYHHLPLS the result was 52 nM (3 of 3 replicates). The variant KSSKEVLYESRNKNSVA / WASTRES / QQYFRLPLS showed 2.2 nM (3 of 3 replicates). The variant KSSDSPLYESRNKNSVA / WASTRES / QQYHRLPLS showed 4.4 nM (3 of 3 replicates). The variant KSSASVLYESRNKNSVA / WAVTRES / QQYHMLPLS showed 420 nM (3 of 3 replicates). For KSSDSVLYESRNKNSVA / WASTRES / LQYHRLPGS, the assay gave 45 µM (3 of 3 replicates). The variant KSSHSVLYESRNKESVA / WASTRES / YQYHRLPLS gave 6.6 µM (3 of 3 replicates). The variant KSSLSVLYESRNKNSVA / WASTRES / QQSHRLPLS showed 150 nM (3 of 3 replicates).

The 5 strongest on average among those seen in every replicate, once more:

CDR-L1,CDR-L2,CDR-L3,Kd (apparent),seen in
KSSKEVLYESRNKNSVA,WASTRES,QQYFRLPLS,2.2 nM,3/3
KSSDSPLYESRNKNSVA,WASTRES,QQYHRLPLS,4.4 nM,3/3
KSSYSPLYESRNKNSVA,WASTRES,QQYHRLPFS,5.1 nM,3/3
KSSWSVLYESRNQNSVA,WASTRES,QQYHRLPLS,5.4 nM,3/3
KSSASVLYEARNKNSVA,WASTRES,QQYHRLPRS,6.2 nM,3/3